Experimental data reported in patent publication US11718635B2, “Iron bis(imino) aryl catalysts and methods thereof” (ExxonMobil Chemical Patents Inc., priority 2019, dated 2023).

Assay: Solubility tests in anhydrous hexane (stirred 30 minutes at room temperature, filtered, solvent removed)
Type: physicochemical
Conditions: filtered through 4-5.5 micron frit
Protocol: Into a vial was placed 0.097 g of 2,6-bis-[1-(2-chloro-4,6-dimethylphenylimino)ethyl]pyridine iron-silylneopentyl with 2.007 g of anhydrous hexane. This solution was stirred for 30 minutes at room temperature. The contents were then filtered through a buchner filter funnel with a frit having a 4-5.5 micron size. The solvent was then removed en vacuo.
Comparitive: Into a vial was placed 0.077 g 2,6-bis-[1-(2-chloro-4,6-dimethylphenylimino)ethyl]pyridine iron dichloride with 2.008 g of anhydrous hexane (Sigma Aldrich). This solution was stirred for 30 minutes at room temperature. The contents were then filtered through a buchner filter funnel with a frit having a 4-5.5 micron size. The solvent was then removed en vacuo.

2,6-bis-[1-(2-chloro-4,6-dimethylphenylimino)ethyl]pyridine iron-silylneopentyl [Catalyst 2]
calculated solubility: 5.0 g/g hexane
